Results on 1 compound are retold here after ChEMBL document CHEMBL1126087, “(E)-1,3-dialkyl-7-methyl-8-(3,4,5-trimethoxystyryl)xanthines: potent and selective adenosine A2 antagonists” (J Med Chem, 1992).

The chains behind the UniProt entries cited, without tags or fusion partners.
UniProt P47745, whole entry: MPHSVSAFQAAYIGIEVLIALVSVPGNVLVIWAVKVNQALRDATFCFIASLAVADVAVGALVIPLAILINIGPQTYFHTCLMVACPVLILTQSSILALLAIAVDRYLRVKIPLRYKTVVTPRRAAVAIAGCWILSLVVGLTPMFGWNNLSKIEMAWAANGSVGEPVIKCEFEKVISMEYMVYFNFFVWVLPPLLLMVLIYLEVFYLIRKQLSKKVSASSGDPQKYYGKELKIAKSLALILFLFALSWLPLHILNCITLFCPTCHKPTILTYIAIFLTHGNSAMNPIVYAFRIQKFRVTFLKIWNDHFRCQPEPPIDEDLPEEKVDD

The test has as its target Adenosine receptor A1 (Cavia porcellus, UniProt P47745).

For `CCCn1c(=O)c2nc(/C=C/c3cc(OC)c(OC)c(OC)c3)[nH]c2n(CCC)c1=O`, the Ki is 850 nM.
